Earlier results, collected in patent US6017932A, “Pharmaceutical compositions containing at least one NSAID having increased bioavailability” (priority 1996, dated 2000).

Tested on: COX-II
Settings: vs COX-I; cited from earlier work

CS(=O)(=O)Nc1cc2c(cc1Oc1ccc(F)cc1F)C(=O)CC2 [Flosulide]
COX-II selectivity (in words): selectively inhibit the detrimental COX-II
